The numbers were not newly measured in patent US9119409B2, “Water soluble nutritional supplement for ruminants” (priority 2013, dated 2015), which cites them from elsewhere.

The conditions of this data set: in water; individual salt.

Take calcium gluconate: the solubility entry is given as “about 30 g/L”.
